Test results published in PMC2720045 (Proteins, 2009).

The chains behind the UniProt entries cited, without tags or fusion partners. Residues count along the entry.
UniProt P00791, 60-385: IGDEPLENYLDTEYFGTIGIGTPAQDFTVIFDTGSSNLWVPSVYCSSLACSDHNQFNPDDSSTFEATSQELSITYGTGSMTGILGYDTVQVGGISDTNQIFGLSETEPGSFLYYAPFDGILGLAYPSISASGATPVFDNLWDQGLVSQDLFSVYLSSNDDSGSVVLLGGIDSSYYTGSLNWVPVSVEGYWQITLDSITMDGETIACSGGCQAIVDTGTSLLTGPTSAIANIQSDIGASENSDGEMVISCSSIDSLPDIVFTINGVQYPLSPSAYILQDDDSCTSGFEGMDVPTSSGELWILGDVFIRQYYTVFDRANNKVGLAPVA

Molecular target: porcine pepsin (Sus scrofa, UniProt P00791)
Assay: DSC of pepsin with inhibitors
Type: binding
Settings: DSC pH 3; […] (APV) or 2-fold (Ac-PEP) molar excess; unliganded pepsin Tm 74.2

acetyl pepstatin [Ac-PEP] was tested, and the ΔTm pepsin was ≥ 17 °C.
